# Molecular target: human VPS34 (Homo sapiens (Human), UniProt Q8NEB9)
# Chains of the proteins cited; added tags and fusions are not shown.
# UniProt Q8NEB9, whole entry: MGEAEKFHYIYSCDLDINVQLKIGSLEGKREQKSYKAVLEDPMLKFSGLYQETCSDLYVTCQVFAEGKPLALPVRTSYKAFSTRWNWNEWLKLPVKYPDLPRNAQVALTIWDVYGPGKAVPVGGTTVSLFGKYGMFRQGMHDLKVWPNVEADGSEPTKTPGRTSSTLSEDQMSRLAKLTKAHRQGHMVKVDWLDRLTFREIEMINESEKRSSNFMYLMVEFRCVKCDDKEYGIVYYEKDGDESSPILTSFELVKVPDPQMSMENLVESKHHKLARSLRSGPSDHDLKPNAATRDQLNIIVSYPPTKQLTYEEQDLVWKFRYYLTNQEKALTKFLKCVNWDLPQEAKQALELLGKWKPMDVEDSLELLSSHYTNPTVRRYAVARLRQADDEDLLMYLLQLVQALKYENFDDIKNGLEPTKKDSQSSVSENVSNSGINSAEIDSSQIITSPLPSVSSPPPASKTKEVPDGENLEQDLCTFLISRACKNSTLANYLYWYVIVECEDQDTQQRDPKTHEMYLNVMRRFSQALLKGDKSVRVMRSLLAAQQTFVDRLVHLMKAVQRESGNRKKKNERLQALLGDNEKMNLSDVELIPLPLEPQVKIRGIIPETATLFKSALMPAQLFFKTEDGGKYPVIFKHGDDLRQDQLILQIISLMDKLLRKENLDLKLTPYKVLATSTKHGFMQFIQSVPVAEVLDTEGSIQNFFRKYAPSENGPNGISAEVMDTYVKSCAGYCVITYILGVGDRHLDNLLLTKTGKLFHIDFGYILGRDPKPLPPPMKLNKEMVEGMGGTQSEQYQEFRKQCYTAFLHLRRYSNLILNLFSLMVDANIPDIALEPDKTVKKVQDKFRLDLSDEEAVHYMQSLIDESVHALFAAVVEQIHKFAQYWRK
# Test: Human VPS34 enzyme assay (Adapta TR-FRET ADP detection)
# Type: biochemical
compound,measurement,value
"Nc1ncc(-c2ccnc(Nc3ccncn3)c2)cc1C(=O)NC12CC(C1)C2 [Compound I-298, 6-amino-N-(bicyclo[1.1.1]pent-1-yl)-2′-(pyrimidin-4-ylamino)-3,4′-bipyridine-5-carboxamide]",IC50,< 10 nM

# — patent publication US9751854B2 (Millennium Pharmaceuticals, Inc., priority 2014, dated 2017)
